Reference: ChEMBL document CHEMBL1152940 (Bioorg Med Chem, 2009)
pEC50, pKi: −log10 of the molar value.

The chains behind the UniProt entries cited, without tags or fusion partners.
UniProt P61169, whole entry: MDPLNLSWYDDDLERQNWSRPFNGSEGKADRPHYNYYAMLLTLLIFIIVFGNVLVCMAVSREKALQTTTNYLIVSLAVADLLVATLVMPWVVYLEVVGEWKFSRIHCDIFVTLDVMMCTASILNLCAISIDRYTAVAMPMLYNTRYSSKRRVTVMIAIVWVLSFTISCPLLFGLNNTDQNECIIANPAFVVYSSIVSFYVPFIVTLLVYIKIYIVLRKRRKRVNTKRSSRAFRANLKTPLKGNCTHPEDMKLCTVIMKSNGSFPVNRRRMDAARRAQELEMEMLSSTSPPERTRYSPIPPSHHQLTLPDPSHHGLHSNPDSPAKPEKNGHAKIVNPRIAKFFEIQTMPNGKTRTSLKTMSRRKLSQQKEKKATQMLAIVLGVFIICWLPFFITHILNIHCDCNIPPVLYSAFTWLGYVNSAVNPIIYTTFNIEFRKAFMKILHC

Columns and labels:
D(2) dopamine receptor [1] = target: T1, D(2) dopamine receptor (Rattus norvegicus, UniProt P61169); assay: Displacement of [3H]raclopride from rat dopamine D2short receptor expressed in CHO-K1 cells by liquid scintillation counting; format: cell-based
D(2) dopamine receptor [2] = target: T1, D(2) dopamine receptor; assay: Agonist activity at rat dopamine D2short receptor expressed in CHO-K1 cells assessed as stimulation of [35S]GTPgammaS binding by liquid scintillation counting; format: functional, cell-based

pKi (D(2) dopamine receptor [1]): 7.94
pEC50 (D(2) dopamine receptor [2]): 7.28
SMILES: CN1CCc2cccc3c2[C@H]1Cc1ccc(O)c(O)c1-3 [APOMORPHINE]
